The assay addresses Cannabinoid receptor 1 (Homo sapiens, UniProt P21554).

Sequences of proteins named here, by UniProt entry; tags and fusion partners are left off.
UniProt P21554, whole entry: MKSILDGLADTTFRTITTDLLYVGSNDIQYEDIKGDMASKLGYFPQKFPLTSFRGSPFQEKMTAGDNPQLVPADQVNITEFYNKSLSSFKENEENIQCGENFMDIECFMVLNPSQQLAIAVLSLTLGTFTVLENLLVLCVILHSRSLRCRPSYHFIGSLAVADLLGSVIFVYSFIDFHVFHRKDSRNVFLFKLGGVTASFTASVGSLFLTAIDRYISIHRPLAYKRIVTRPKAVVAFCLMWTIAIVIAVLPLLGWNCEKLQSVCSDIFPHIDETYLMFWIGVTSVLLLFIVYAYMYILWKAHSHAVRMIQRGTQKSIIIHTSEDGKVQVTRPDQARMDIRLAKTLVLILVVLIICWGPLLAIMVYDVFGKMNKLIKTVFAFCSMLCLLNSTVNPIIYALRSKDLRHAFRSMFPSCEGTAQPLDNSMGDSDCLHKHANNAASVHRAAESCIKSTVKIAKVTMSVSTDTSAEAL

For the compound `COc1cc(Cl)ccc1-c1nc(C(=O)NC(C)C)nn1-c1ccc(Cl)cc1Cl`, the Ki is 350 nM.

The Ki is the equilibrium dissociation constant of an inhibitor or competing ligand from its target. High values mean weaker binding, low ones tighter binding.

The values above are taken from ChEMBL document CHEMBL1147585, “Potent imidazole and triazole CB1 receptor antagonists related to SR141716” (Bioorg Med Chem Lett, 2004).
